{"sequences": {"note": "The chains behind the UniProt entries cited, without tags or fusion partners. Where a name states a change or a piece, a line headed by the entry shows the natural chain unless it says otherwise.", "UniProt P43351": "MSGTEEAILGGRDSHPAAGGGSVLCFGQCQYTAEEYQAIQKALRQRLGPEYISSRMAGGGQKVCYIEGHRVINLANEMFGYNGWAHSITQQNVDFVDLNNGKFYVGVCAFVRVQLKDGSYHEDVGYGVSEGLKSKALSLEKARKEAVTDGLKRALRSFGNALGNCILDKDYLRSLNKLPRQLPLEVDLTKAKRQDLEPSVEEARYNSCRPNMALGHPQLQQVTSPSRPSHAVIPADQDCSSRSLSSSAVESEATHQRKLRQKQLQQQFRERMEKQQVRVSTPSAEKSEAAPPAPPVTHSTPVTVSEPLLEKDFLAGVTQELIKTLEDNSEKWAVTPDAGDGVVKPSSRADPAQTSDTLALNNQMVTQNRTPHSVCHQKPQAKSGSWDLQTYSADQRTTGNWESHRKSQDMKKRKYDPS"}, "source": "PubChem BioAssay AID651660", "about": "(Broad Institute, 2012)", "note": "This is a selection; strong and weak results do not stand in their true shares. Calls of active or inactive are those of the source.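 How the source made its calls: active means every replicate shows at least 50% inhibition; inconclusive means mean inhibition at least 50% but some replicate below; inactive means the rest.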", "data": [{"biological_target": "DNA repair protein RAD52 homolog (Homo sapiens) (UniProt P43351)", "test": "inhibition of RAD52-mediated strand annealing – biochemical, FRET, single point, primary screen (AID 651660);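 further: 0% = median of neutral control wells and 100% = median of positive control wells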", "conditions": "Recombinant RAD52 ssDNA annealing, FRET fluorescence, 30 min; at 18.7 µM; stronger effect = higher value", "values": [{"smiles": "CN(C(=O)Cc1ccc(Cl)c(Cl)c1)[C@@H]1CCCC[C@H]1N1CCCC1", "inhibition": "inactive: -3.97%"}]}]}
